Assay results: patent publication US9577283B2, “Energy storage battery” (NISSIN ELECTRIC CO., LTD., priority 2012, dated 2017)
Read-outs that look alike come from different tables or passages of the source.

[1] = target concentration 0.2 mol/L, metal:ligand 1:1, pH 7, with Na2SO4

Substance | deposition of manganese compound on preparing aqueous solution (0.2 mol/L, molar ratio of manganese to ethylenediamine 1:5, pH 7, with Na2SO4) | deposition of manganese compound on preparing aqueous solution [1]
Mn(II)-ethylenediamine complex | no manganese compound was deposited | a manganese compound is deposited immediately
Mn(II)-succinic acid complex |  | a manganese compound was immediately deposited
